Measurements as given in patent US10244779B2, “Method of improving stability of sweet enhancer and composition containing stabilized sweet enhancer” (SENOMYX, INC., priority 2010, dated 2019).

Conditions: buffer, 100 ppm, pH 2.8
Description: Aqueous buffer solution at pH 7.1 contains 50 mM potassium dihydrogen phosphate and ˜32 mM sodium hydroxide (solutions of 1.0 M hydrochloric acid and 1.0 M sodium hydroxide are used to adjust pH). Aqueous buffer solution at pH 4.0 contains 50 mM citric acidmonosodium salt and ˜7.4 mM sodium hydroxide (solutions of 1.0 M hydrochloric acid and 1.0 M sodium hydroxide are used to adjust pH). Aqueous buffer solution at pH 2.8 contains 50 mM citric acid and ˜16 mM sodium hydroxide (solutions of 1.0 M hydrochloric acid and 1.0 M sodium hydroxide are used to adjust pH).
The stock solutions of the test compounds at 25 mM are made by dissolving the compounds in dimethyl sulfoxide. The solutions of the stabilizers are made by dissolving the materials in the aqueous buffers. The stock solutions are then diluted to 25 μM with the stabilizer solutions to prepare the test solution and 4-mL aliquots of the solutions are transferred to 20-mL clear glass vial for testing. […]
The samples are analyzed using an Agilent 1100 LC/MSD equipped with a quaternary pump and a diode-array detector (DAD). The peak areas from the MSD chromatograms are used for quantitation, and the photostability is shown by plotting the percentages of the test compound which remains intact at all time points. The peak areas from the DAD chromatograms are used for quantitation for stabilizers with concentration at 250 uM or higher. […]

% Remaining @ 1 hr (1 h): 103.59% | % Remaining @ 2 hrs (2 h): 104.11%
Structure (SMILES): COc1cc2ccc(=O)oc2cc1O [scopoletin]
